The conditions of this series: human, microsomes.

Regarding `O=C(O)Cc1ccccc1Nc1c(Cl)cccc1Cl` [DICLOFENAC], the CLH is 0.1299 mL/min/kg.

Source of the values: ChEMBL document CHEMBL4368891, “Conformationally restricted quinazolone derivatives as PI3Kδ-selective inhibitors: the design, synthesis and biological evaluation” (Medchemcomm, 2019).
